# Source: patent US20210162009A1, “CHEMOKINE VARIANTS AS IMMUNE STIMULANTS” (THE MEDICAL COLLEGE OF WISCONSIN, INC., priority 2017, published 2021)
# Assay: Translational diffusion measurements (dimerisation state)
# Format: physicochemical
# Conditions: 20 mM sodium phosphate pH 7.4; non-linear fitting of Ds values; read-out: dimer dissociation Kd
# Excerpt: The lines connecting the cysteines show where the intra-and intermolecular disulfide bonds are. A) CXCL12-α2 locked dimer amino acid sequence with the conserved intramolecular disulfide bonds (black lines) and the engineered intermolecular disulfide bonds (red lines) illustrated. B) SDS-PAGE of CXCL12-αand CXCL12-α2 treated with and without dithiothreitol (DTT). CXCL12-α and CXCL12-α2 migrate near the monomeric molecular weight of 8 kDa when treated with DTT. In contrast, CXCL12-α2 migrates as a dimer while CXCL12-α migrates as a monomer in the absence of DTT. C) Translational diffusion measurements of CXCL12-α2 indicate CXCL12-α2 is dimeric. […] Ds values for 10, 50, and 150 μM SDF12 (red triangles) range from 1.08-1.09 (×10^−6 cm^2s^−1) consistent with those expected for CXCL12-α in the dimeric state. D) N-terminal peptides corresponding to the first thirty-eight amino acids of CXCR4 are illustrated. The sequence for p38 is identical to that of CXCR4 except for an additional N-terminal Gly-Ser dipeptide (cloning artifact) and the C28A substitution (green) introduced to prevent oxidative peptide dimer formation. The sulfated peptides are identical to p38 except for the inclusion of sulfotyrosine at position 21 for p38-sY1 and at positions 7, 12 and 21 for p38-sY3.
substance,measurement,value
"wild-type CXCL12: wild type CXCL12 chemokine (SEQ ID NO:3), natural ligand for CXCR4",Kd,120 µM
